The nature of the series: Brain regional distribution of [3H]compound relative to cerebellum.

In the case of “1-(5-(3-(difluoromethoxy)phenylsulfonyl)-2-methoxyphenyl)-4-([^3H]methyl)-piperazine [Example 3]”, the F.Cortex/Cer. was found to be 2.8 (3 min after dose) and 1.2 (40 min after dose).
